Reference: ChEMBL document CHEMBL5725546, “Triazine derivative and pharmaceutical composition having an analgesic activity comprising the same” (2017)

Target: T1, P2X purinoceptor 3 (Homo sapiens, UniProt P56373)
T1 sequence (P56373 whole entry): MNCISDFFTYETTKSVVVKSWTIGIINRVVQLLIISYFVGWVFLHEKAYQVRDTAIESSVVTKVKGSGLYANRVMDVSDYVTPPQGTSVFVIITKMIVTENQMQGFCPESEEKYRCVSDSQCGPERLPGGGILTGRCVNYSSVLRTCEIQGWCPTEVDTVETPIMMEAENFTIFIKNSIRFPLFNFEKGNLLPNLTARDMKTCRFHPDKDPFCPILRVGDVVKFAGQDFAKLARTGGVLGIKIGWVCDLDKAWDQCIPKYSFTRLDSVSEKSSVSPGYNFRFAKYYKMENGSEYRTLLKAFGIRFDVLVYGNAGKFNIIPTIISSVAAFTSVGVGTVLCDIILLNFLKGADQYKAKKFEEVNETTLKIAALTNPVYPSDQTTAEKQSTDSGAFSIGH
Assay: Human P2X3 Receptor Inhibition Assay: Stably expressing cell line (C6BU-1 transfected with human P2X3 receptor gene (GenBank accession number Y07683) was used. […] The medium was replaced with 4 μM Fluo-3-AM solution (20 mM HEPES, 137 mM NaCl, 2.7 mM KCl, 0.9 mM MgCl2, 5.0 mM CaCl2, 5.6 mM D-glucose, 2.5 mM probenecid, 10% BSA, and 0.08% Pluronic F-127, pH 7.5) and incubated at 37° C. under 5% dioxide carbon atmosphere for one hour. The plate was washed with washing buffer (20 mM HEPES, 137 mM NaCl, 2.7 KCl, 0.9 mM MgCl2, 5.0 mM CaCl2, 5.6 mM D-glucose, 2.5 mM probenecid, pH 7.5), each well was added with 40 μL of this buffer. The plate was placed in High-Throughput Screening System FDSS 3000 (Hamamatsu Photonics K.K.). Measurement of fluorescence intensity by FDSS 3000 was started, and 40 μl, of DMSO solutions containing different concentrations of the test, compound as prepared by dilution with dilution buffer (20 mM HEPES, 137 mM NaCl, 2.7 mM KCl, 0.9 mM MgCl2, 5.0 mM CaCl2, 5.6 mM D-glucose, 2.5 mM probenecid, 0.1.% Pluronic F-127, pH 7.5) were dispensed to each well through the built-in automatic dispenser. Five minutes after, 50 nM ATP solution (50 μL) prepared by dilution with the dilution buffer was dispensed through the built-in automatic dispenser, and the measurement of fluorescence intensity was continued for 3 min. […]

## CC(CO)(CO)Cn1c(=O)[nH]/c(=N\c2ccc(Oc3cccnn3)cc2)n(Cc2ccc(Cl)cc2)c1=O
  IC50: 4 nM
